For the series the following is noted: 20 mM sodium acetate aqueous solution (pH 5.0), 37° C., after about 100 hours, ion exchange HPLC.

As to “HO-T^e2s-A^e2s-G^e2s-G^e2s-G^e2s-T^e2s-T^e2s-A^e2s-G^e2s-C^e2s-A^e2s-A^e2s-CH2CH2OH [Example 1]”, the hydrolysis result was “no hydrolysis”.

These data come from patent US20070117773A1, “Telomerase-inhibiting ENA oligonucleotide” (SANKYO COMPANY, LIMITED, priority 2004, published 2007).
